# AlphaSeq binding of Ab-14 heavy chain variants to a spike HR2 peptide

The measurements come from Engelhart et al. 2022 (doi:10.1038/s41597-022-01779-4) through the FLAb antibody collection.

Binding partner: SARS-CoV-2 spike HR2 peptide, sequence PDVDLGDISGINAS.

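AAYL49 was designed without a model: most single CDR substitutions and a random sample of double and triple ones. Affinity was read by AlphaSeq, a pooled yeast mating assay with surface-displayed partners. The frequency of each diploid, read from paired DNA barcodes, reflects how well the two displayed proteins bind. Read counts were normalised to the haploid input and turned into Kd by a linear fit to BCL2-family pairs of known affinity, for each replicate. Each pool was mated in three replicate cultures.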

Parent: Ab-14, a human scFv built as VH, a (GGGGS)3 linker, VL. Only the CDRs of the heavy chain vary.
VH: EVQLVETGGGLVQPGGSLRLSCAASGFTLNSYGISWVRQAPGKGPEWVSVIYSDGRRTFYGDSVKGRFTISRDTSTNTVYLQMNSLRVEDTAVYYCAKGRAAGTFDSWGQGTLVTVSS
VL: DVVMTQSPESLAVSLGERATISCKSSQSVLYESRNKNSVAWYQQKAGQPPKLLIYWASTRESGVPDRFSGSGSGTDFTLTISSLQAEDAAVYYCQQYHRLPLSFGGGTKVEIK

Changes read parent residue, position, new residue, counted from the first residue of the VH shown.
Affinities are written as log10 Kd with Kd in nM; a lower number is a better binder.
The mean shown is taken over the replicates in which the pair was detected.
"nd" means that the variant was in the library but no mating with the target was seen in any replicate; the authors take this as a sign of poor binding, and no number exists.
Order: sorted from the lowest average up, undetected variants last.
In this assay the parent's reference entry averaged 0.65; its copy inside this library read 4.11 (one replicate of three).
As a blank, each scFv also met three strains without target: over library AAYL49, 15% of these pairings were detected, typically at 4.06 and seldom below 2.83.

changes	log10 Kd (nM), mean	replicates with signal
T28D+S63M+D106V	0.82	3 of 3
F59M+A102D+D106F	0.91	3 of 3
R56I+F105G+D106G	0.93	3 of 3
T28D+Y32M+R100A	0.95	3 of 3
G103K+D106Q+S107A	1.64	3 of 3
I51M+R100Q+S107R	2.31	3 of 3
S35F+D62T+G99D	2.39	1 of 3
F27P+T28N+A101S	2.55	3 of 3
F27R+L29G+A101V	2.56	2 of 3
Y32L+R56V+T58R	2.89	3 of 3
G61E+T104V	2.90	2 of 3
I34V+R57A+T104A	3.31	3 of 3
I34W+S63M+T104A	3.37	2 of 3
Y60A+G103T	3.41	3 of 3
S31P+D54C+S107E	3.45	1 of 3
Y52V+S53M	3.48	1 of 3
S53G+D54A+F105Q	3.61	1 of 3
R57T+T58E+D62H	3.72	2 of 3
T28Y+G33Y+R57P	4.16	1 of 3
V50T+R56K+Y60H	4.28	1 of 3
S53E+S63H+K65A	4.31	1 of 3
Y32A+Y60E+A101P	4.58	1 of 3
I34A+S53D+D62W	4.74	3 of 3
S31K+T58R+Y60N	4.82	1 of 3
G26I+S53M+G103K	4.90	2 of 3
F27Y+R57N+G61Q	5.15	1 of 3
N30G+D62W+T104Y	5.49	1 of 3
S31F+Y52N+G99M	5.62	2 of 3

Continued, with the values leading:

log10 Kd (nM), mean	replicates with signal	changes
nd	0 of 3	D54S+S63V+A102M
nd	0 of 3	S31W+I34L+K65G
nd	0 of 3	G26W+I34W+K65I
nd	0 of 3	S31R+R56Y
nd	0 of 3	I34H+V50H+D54M
nd	0 of 3	N30I+S31I+S35R
nd	0 of 3	R57M+T104N+D106F
nd	0 of 3	N30M+V50K+S107D
nd	0 of 3	N30L+S35M+F105G
nd	0 of 3	R57L+G61R+V64M
nd	0 of 3	G26V+I34E+S63H
nd	0 of 3	S35G+S63C+S107V
nd	0 of 3	S35W+R100K+F105K
nd	0 of 3	G55E+Y60N+G99H
nd	0 of 3	I34G+V50I+R56Y
nd	0 of 3	G33M+D54V+G55K
nd	0 of 3	D54G+G61K+R100M
nd	0 of 3	G55Y+R100F
nd	0 of 3	N30I+S31F+K65M
nd	0 of 3	S35V+S53Q+S63G
nd	0 of 3	G33D+D54E+T58S
nd	0 of 3	T28V+S53Y+D62W
nd	0 of 3	D62W+G103M
nd	0 of 3	Y32V+G33M
nd	0 of 3	I51V+Y52I+S63I
nd	0 of 3	S53I+G55Y+F59W
nd	0 of 3	G26V+R100T+D106A
nd	0 of 3	G26R+D54A+S107V

The closing 3 entries, repeated:

changes	log10 Kd (nM), mean	replicates with signal
S53I+G55Y+F59W	nd	0 of 3
G26V+R100T+D106A	nd	0 of 3
G26R+D54A+S107V	nd	0 of 3